Data published in ChEMBL document CHEMBL3259751, “A rational design strategy of the novel topoisomerase II inhibitors for the synthesis of the 4-O-(2-pyrazinecarboxylic)-4'-demethylepipodophyllotoxin with antitumor activity by diminishing the relaxation reaction of topoisomerase II-DNA decatenation” (Bioorg Med Chem, 2014).

Tests used:
Assay type in all cases: functional, cell-based
BGC-823 = assay: Cytotoxicity against human BGC823 cells after 48 hrs by MTT assay
Summary of the method: (§1)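 Cells seeded at 3500–13,000 per well. A549, HeLa and HepG2 were grown in DMEM and BGC-823 in RPMI 1640, each with 10% CS plus penicillin/streptomycin, at 37 °C and 5% CO₂. Drug exposure lasted 2 days, followed by MTT readout at A₄₉₂, with untreated controls at 0.6–0.8. IC50 was the concentration cutting absorbance by 50%, interpolated by sigmoidal nonlinear regression. Run in triplicate.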

A549 = assay: Cytotoxicity against human A549 cells after 48 hrs by MTT assay; summary of the method: as §1
HeLa = assay: Cytotoxicity against human HeLa cells after 48 hrs by MTT assay; summary of the method: as §1
HepG2 = assay: Cytotoxicity against human HepG2 cells after 48 hrs by MTT assay; summary of the method: as §1

Measured: Activity

COc1cc([C@@H]2c3cc4c(cc3[C@@H](NC(=O)c3cc(O)c(O)c(O)c3)[C@H]3COC(=O)[C@H]23)OCO4)cc(OC)c1O
active: BGC-823 = Dose-dependent effect | A549 = Dose-dependent effect | HeLa Dose-dependent effect | HepG2 = Dose-dependent effect

COc1cc([C@@H]2c3cc4c(cc3[C@@H](NC(=O)Cn3cnc5c3c(=O)n(C)c(=O)n5C)[C@H]3COC(=O)[C@H]23)OCO4)cc(OC)c1O
active: BGC-823 = Dose-dependent effect | A549 = Dose-dependent effect | HeLa Dose-dependent effect | HepG2 = Dose-dependent effect

COc1cc([C@@H]2c3cc4c(cc3[C@@H](OC(=O)c3cnccn3)[C@H]3COC(=O)[C@H]23)OCO4)cc(OC)c1O
active: BGC-823 = Dose-dependent effect | A549 = Dose-dependent effect | HeLa Dose-dependent effect | HepG2 = Dose-dependent effect

COc1cc([C@@H]2c3cc4c(cc3[C@@H](NC(=O)c3cnc(C)cn3)[C@H]3COC(=O)[C@H]23)OCO4)cc(OC)c1O
active: BGC-823 = Dose-dependent effect | A549 = Dose-dependent effect | HeLa Dose-dependent effect | HepG2 = Dose-dependent effect

COc1cc([C@@H]2c3cc4c(cc3[C@@H](OC(=O)c3ccc5ccccc5n3)[C@H]3COC(=O)[C@H]23)OCO4)cc(OC)c1O
active: BGC-823 = Dose-dependent effect | A549 = Dose-dependent effect | HeLa Dose-dependent effect | HepG2 = Dose-dependent effect

COc1cc([C@@H]2c3cc4c(cc3[C@@H](OC(=O)Cn3cnc5c3c(=O)n(C)c(=O)n5C)[C@H]3COC(=O)[C@H]23)OCO4)cc(OC)c1O
active: BGC-823 = Dose-dependent effect | A549 = Dose-dependent effect | HeLa Dose-dependent effect | HepG2 = Dose-dependent effect

COc1cc([C@@H]2c3cc4c(cc3[C@@H](OC(=O)c3cnc(C)cn3)[C@H]3COC(=O)[C@H]23)OCO4)cc(OC)c1O
active: BGC-823 = Dose-dependent effect | A549 = Dose-dependent effect | HeLa Dose-dependent effect | HepG2 = Dose-dependent effect

COc1cc([C@@H]2c3cc4c(cc3[C@@H](NC(=O)c3cnccn3)[C@H]3COC(=O)[C@H]23)OCO4)cc(OC)c1O
active: BGC-823 = Dose-dependent effect | A549 = Dose-dependent effect | HeLa Dose-dependent effect | HepG2 = Dose-dependent effect

COc1cc([C@@H]2c3cc4c(cc3[C@@H](OC(=O)c3cn(C5CC5)c5cc(Cl)c(F)cc5c3=O)[C@H]3COC(=O)[C@H]23)OCO4)cc(OC)c1O
active: BGC-823 = Dose-dependent effect | A549 = Dose-dependent effect | HeLa Dose-dependent effect | HepG2 = Dose-dependent effect
